Compounds with a hit are over-represented: about 1.3% of the library has one in this group of screens.
Rango-impB inh: inhibitors of Rango-importin beta complex formation; Rango CFP/YFP FRET sensor + importin beta, 45 min; AID 540263; Q14974; 0.031% of 340,000 active; Potency, µM (doses to about 92.2 µM); also: nearly all actives have a fitted effect of over 15% in size
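FRET biosensor Rango (snurportin 1 IBB between N-terminal EYFP and C-terminal Cerulean), 50 nM in PBS/1 mM DTT/0.02% Tween-20/0.1% BSA, preincubated 5 min RT with compound; 0.125 microM importin beta added, 45 min RT, CFP/YFP FRET ratio read.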
hERG WT inh: inhibitors of human wildtype KCNH2 potassium channel; U2OS, BacMam KCNH2, thallium flux FluxOr; active compounds read low; activity change, % at 1.84 µM; AID 720551; 0.37% of 340,000 active; Q12809;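 active = maximum activity change below -70%; inconclusive = maximum activity change between -70% and -50%; inactive = maximum activity change above -50%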
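U2OS cells were transduced with wild-type KCNH2 virus (2.03 x 10^8 / mL) for 4 h at room temperature, then cultured overnight at 37 C. Thallium flux was read with FluxOr dye. Rate constants were normalized to DMSO controls.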
Rango dissoc inh: inhibitors of RanGTP-induced Rango-importin beta complex dissociation. Biochemical FRET Rango-importin beta, RanGTP-induced dissociation. O95149+P62826. 0.071% of 340,000 active. Potency, µM (doses to about 46.1 µM); also: nearly all actives have a fitted effect of over 45% in size
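Compounds sat 5 min at room temperature with 0.1 uM Rango biosensor plus 0.25 uM importin beta, then FRET pre-read. RanGTP-RCC1 (0.6 uM Ran, 2mM GTP, 0.2 uM RCC1) added for 45 min, and the CFP/YFP post-read measured blocked complex dissociation.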
KCNH2 3.1 inh: inhibitors of human KCNH2 3.1 potassium channel isoform. 0.95% of 340,000 active. activity change, % (tested at about 1.8 µM). AID 720553. U2OS KCNH2 3.1, thallium flux FluxOr; active compounds read low;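 active = maximum activity change below -70%; inconclusive = maximum activity change from -70% to -50%; inactive = maximum activity change above -50%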;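 also: thallium influx rate constant from kinetic fluorescence after stimulation buffer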
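We transduce U2OS cells with the mutant 3.1 virus, culture them overnight, load FluxOr with Red40 quencher for 45 min, then add stimulation buffer and read kinetically for 2 min to derive a normalized rate constant.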
Large screens that a line does not name were inactive; ! = not active in a repeat; [ ] = remark or other dose. Unless noted, calls follow the shape of the full dose curve.

CC(C)C(C)NC(=O)COn1nnc2ccc(S(=O)(=O)N3CCOCC3)cc21 (centres undefined)	none
COc1ccc(C(=O)NC2CC2)cc1OC1CCN(Cc2ccc(Cl)cc2)CC1	hERG WT inh -128 (no result: KCNH2 3.1 inh)
C[C@@H]1CCC(=O)N(C[C@@H](C)CSc2ccc(Br)cc2)CC1	KCNH2 3.1 inh -113
N#C/C(=C\c1ccc[nH]1)C(=O)Nc1ccccc1F	none
N#C/C(=C\c1ccc[nH]1)C(=O)Nc1ccccc1Cl	Rango-impB inh 16µM
C#CCNC(=O)c1ccc(OCc2ccccc2)cc1Cl	none
O=C(NCCCl)c1ccc(OCc2ccccc2)cc1Cl	KCNH2 3.1 inh -113
C(/C=C/c1ccccn1)=C\c1ccccc1	KCNH2 3.1 inh -81
C(=C\c1ccccn1)/c1ccncc1	none
Cc1cc(=O)[nH]c(N2CCCCC2)n1	none
COc1ccccc1CNCC(=O)NCc1ccc(C)cc1	KCNH2 3.1 inh -71
O=C(Cn1cnc2ccccc2c1=O)Nc1nc2ccccc2s1	KCNH2 3.1 inh -97
O=C(CN1CCN(Cc2ccc(F)cc2)CC1)Nc1nc2ccccc2s1	KCNH2 3.1 inh -74
CCCN1CCN(CC(=O)Nc2nc3ccccc3s2)CC1	none
COc1cc(C(=S)N2CCN(c3ccccc3Cl)CC2)cc(O)c1O	hERG WT inh -174, Rango dissoc inh inconclusive, KCNH2 3.1 inh -75
Cc1ccc(N(CC(O)CN2C(=O)NC(C)(C)C2=O)S(=O)(=O)c2ccc([N+](=O)[O-])cc2)cc1 (centres undefined)	none
CC(C)Cn1c(N)c(C(=O)CSc2nc3ccccc3n2C)c(=O)n(C)c1=O	none
Cc1csc(SCC(=O)c2c(N)n(CC(C)C)c(=O)n(C)c2=O)n1	hERG WT inh -325
CC(C)Cn1c(SCC(=O)c2c(N)n(C)c(=O)n(C)c2=O)nc2ccccc21	hERG WT inh -116
CCOC(=O)Cc1csc(SCC(=O)c2c(N)n(CC(C)C)c(=O)n(C)c2=O)n1	none
O=C(CNC(=O)/C(=C/c1ccccc1)NC(=O)c1ccc(Br)cc1)OCc1ccccc1	KCNH2 3.1 inh -85
Nc1cc(N)nc(SCC(=O)N2CCN(S(=O)(=O)c3ccccc3)CC2)n1	hERG WT inh -90
O=C(CSc1ccccc1)N1CCN(S(=O)(=O)c2ccccc2)CC1	none (no result: KCNH2 3.1 inh)
COc1ccccc1C(=O)NNC(=O)C1CC=CCC1 (centres undefined)	none
CS(=O)(=O)c1ccc2nc(NC(=O)c3ccc(Cn4cc(Br)cn4)o3)sc2c1	Rango-impB inh inconclusive, KCNH2 3.1 inh -95
C=CCn1cc(/C=C2\SC(N3CCOCC3)=NC2=O)c2ccccc21	Rango-impB inh inconclusive, Rango dissoc inh 16µM
Cc1ccc(C)c(NC(=O)CCN2CC(C)CC(C)C2)c1 (centres undefined)	KCNH2 3.1 inh -73
Cc1ccc(C)c(NC(=O)CCN2CCC(C)CC2)c1	none
COc1cc2c(cc1OC)C(c1cc(OC)c(OC)cc1[N+](=O)[O-])N(C(C)=O)CC2 (centres undefined)	none
Cc1nc(NC(=O)CSc2nnc(C3CC3)n2C)sc1C	hERG WT inh -254
Cn1c(SCC(=O)Nc2ccccc2Oc2ccccc2)nnc1C1CC1	hERG WT inh -110
Cn1c(SCC(=O)Nc2nncs2)nnc1C1CC1	none
CCOc1ccc(NC(=O)c2ccc(F)c(S(=O)(=O)N3CCN(c4ccccn4)CC3)c2)cc1	KCNH2 3.1 inh -71
N#CC1=C(N)OC2=C(CC/C2=C\c2ccccc2)C1c1ccccc1 (centres undefined)	Rango-impB inh inconclusive, hERG WT inh -73, Rango dissoc inh inconclusive
N#CC1=C(N)OC2=C(CC/C2=C\c2ccccc2Cl)C1c1ccccc1Cl (centres undefined)	Rango-impB inh inconclusive, Rango dissoc inh inconclusive
O=C(COC(=O)C1=COCCO1)Nc1ccc([N+](=O)[O-])cc1C(F)(F)F	none
Cc1cccc(NC(=O)/C=C/c2ccc([N+](=O)[O-])s2)c1	Rango-impB inh inconclusive, Rango dissoc inh 2.1µM[inhibitor]
Cc1ccc(NC(=O)/C=C/c2ccc([N+](=O)[O-])s2)cc1	Rango dissoc inh 0.73µM[inhibitor]
CC(=O)N1CCN(S(=O)(=O)c2cccc(C(=O)N3CCN(S(=O)(=O)c4c(C)c(C)cc(C)c4C)CC3)c2)CC1	none (no result: Rango-impB inh, Rango dissoc inh)
CC(C)C1N(C(=O)N(C)C)CCN1S(=O)(=O)c1ccccc1 (centres undefined)	Rango-impB inh inconclusive, KCNH2 3.1 inh -141
Cc1cccc(OCC(O)CN2C(C)(C)CC(O)CC2(C)C)c1 (centres undefined)	none
CC1(C)CC(O)CC(C)(C)N1CC(O)COCc1ccccc1 (centres undefined)	KCNH2 3.1 inh -81
COc1ccccc1CNC(=O)/C(C#N)=C/c1ccc(OC)c(OC)c1OC	none
OCCN1CCN(C2Cc3cc(Cl)ccc3Sc3ccc(Cl)cc32)CC1 (centres undefined) (tested in a mixture with another compound)	none
CN1CCN(CCOC2Cc3ccccc3Sc3ccc(Cl)cc32)CC1 (centres undefined)	hERG WT inh inconclusive, KCNH2 3.1 inh -91
COc1ccc(-n2ncc3c2CC(C)(C)CC3NC(=O)c2cnc(C)cn2)cc1 (centres undefined)	none
Nc1nonc1NN=C1CCCCC1	KCNH2 3.1 inh -80
C=C(C)c1cc2c(ccc3ccc(=O)oc32)o1	none
CCOC(=O)[C@@H](NC(=O)CC[C@H]1O[C@@H](n2cc(C)c(=O)[nH]c2=O)C[C@@H]1O)C(C)C	none (no result: Rango-impB inh, Rango dissoc inh)
COC(=O)COc1ccc(/C=N/NC(=O)CN(c2ccccc2OC)S(=O)(=O)c2ccccc2)cc1	KCNH2 3.1 inh -89
O=C(c1ccc([N+](=O)[O-])cc1)N1CCN(c2ncc(Br)cn2)CC1	none
COc1ccc(-c2nc3ccccc3n2Cc2ccc(C)cc2)cc1	hERG WT inh -122 (no result: KCNH2 3.1 inh)
O=C(O)c1ccc(N2C(=O)c3ccccc3C2=O)cc1[N+](=O)[O-]	none (no result: Rango-impB inh, Rango dissoc inh)
Cc1noc(C)c1COc1ccccc1C(=O)NNC(=O)c1ccccc1	none
COc1cc(C(=O)NNC(=O)c2ccccc2OCc2c(C)noc2C)cc(OC)c1OC	KCNH2 3.1 inh -87
CCC[C@H]1CN(c2ccccc2)C(=O)[C@@H]1CC(=O)Nc1ccc(Br)cc1	none (no result: Rango-impB inh, Rango dissoc inh)
N#Cc1c(N2CCOCC2)nc(N2CCCCC2)c2c1CCN(C1CCCCC1)C2	Rango-impB inh inconclusive, Rango dissoc inh 23µM
O=[N+]([O-])c1ccc(OCCCCN2CCc3ccccc3C2)cc1	KCNH2 3.1 inh -71
O=[N+]([O-])c1ccc(OCCCCN2CCCCC2)cc1	none
CCCCCCCC[n+]1cccc(C(=O)N(CC)CC)c1	none (no result: hERG WT inh)
CCCCCCCCCCCCCCCC[n+]1cccc(C(=O)N(CC)CC)c1	Rango-impB inh 73µM!, Rango dissoc inh inconclusive
Cc1ccc(C2=CC(C)(c3ccc(C)cc3)Nc3nc(C(F)(F)F)nn32)cc1 (centres undefined)	none
CC1(c2ccc(OCC#N)cc2)C=C(c2ccc(OCC#N)cc2)n2nc(C(F)(F)F)nc2N1 (centres undefined)	KCNH2 3.1 inh -106
